Data published in patent publication US20060159681A1 (FUNCTIONAL NEUROSCIENCE, published 2006).

Assays:
His-parkin = target: T1, His-parkin (human, UniProt O60260); test: in vitro GST pull-down
T1 construct: Purified from E. coli; also called recombinant N-terminus His-tagged parkin; not shown: N-terminal hexa-histidine tag from vector pDEST17
Protocol: (§1) Samples were harvested in lysis-buffer (50 mM Tris-HCl pH 7.4, 150 mM NaCl, 2 mM EDTA, 1% Triton X-100) supplemented with protease inhibitors (Roche). For complete solubilization of the pellet in synphilin ubiquitinylation experiments boiling lysis-buffer with 1% SDS was used. IPs were performed overnight followed by incubation with Protein G sepharose beads (Amersham). PDAs were performed with equimolar amounts of GST- and His-fusion proteins for 1 hr (4° C.). Beads were washed once with lysis-buffer and three times with PBS (pH 7.4).
To further examine the nature of the association between parkin, Hsp70 and BAG5, in vitro pull-down experiments using GST-Hsp70, GST-BAG5, or GST-BAG5(DARA) with recombinant N-terminus His-tagged parkin were used. […] Thus, BAG5 interacted directly with parkin in the absence of Hsp70.

[1] = target: T2, endogenous Hsp70 in human brain lysate (human); test: GST pull-down from human brain SNpc lysate
T2 construct: Native protein in tissue lysate, detected with a monoclonal anti-Hsp70 antibody

His-Hsp70 = target: T3, His-Hsp70 (human); test: in vitro GST pull-down, equimolar GST- and His-fusion proteins
T3 construct: Purified from E. coli (pDEST17) for the pull-down assays; also called full-length Hsp70; not shown: N-terminal hexa-histidine tag from a pDEST vector
Protocol: as §1
To identify the region of Hsp70 which mediates the interaction with BAG5, His-Hsp70 deletion constructs containing only the ATPase Domain (ATPase) or Protein Binding Domain (PBD) of Hsp70 were constructed. Both GST-BAG5 and GST-BAG1, but not GST-alone, pulled down the Hsp70 ATPase domain in vitro. […] Therefore, the ATPase domain of Hsp70 was both necessary and sufficient for the interaction between BAG5 and Hsp70.

Measured: binding result

B1: GST-alone (other, UniProt P08515 1-218, looked up)
chain: MSPILGYWKIKGLVQPTRLLLEYLEEKYEEHLYERDEGDKWRNKKFELGLEFPNLPYYIDGDVKLTQSMAIIRYIADKHNMLGGCPKERAEISMLEGAVLDIRYGVSRIAYSKDFETLKVDFLSKLPEMLKMFEDRLCHKTYLNGDHVTHPDFMLYDALDVVLYMDPMCLDAFPKLVCFKKRIEAIPQIDKYLKSSKYIAWPLQGWQATFGGGDHPPK
notes: Negative control of the pull-down assays
no binding: all assays above
